Measured values: patent US9789156B2, “Combination anti-human epidermal growth factor receptor 2 (anti-HER2) cancer therapy using mucin 1 (MUC1) peptides and hemotherapeutics” (DANA-FARBER CANCER INSTITUTE, INC., priority 2013, dated 2017)
Where two headings read alike, the source gives them in different places.

What was measured:
Type in all cases: cell-based, human
[1] = system: BT474R cells
Experimental: (§1) Cell culture. SKBR3 and BT474 cells were obtained from ATCC (Rockville, Md.). SKBR3 and BT474 were maintained in McCoy's 5a modified medium and Dulbecco's modified Eagle medium/Ham F12 (1:1) supplemented with 10% heat-inactivated FBS, 100 units/ml penicillin, […] streptomycin, and 2 mM L-glutamine. […] Cells were treated with GO-203 and CP-2 peptides (AnaSpec). […] Viability was determined by trypan blue exclusion.
(§2) Determination of IC50 and synergism. Cells were seeded on 96-well plates in 100 μl of growth medium at a density of 3000 cells per well. After 24 h, the cells were exposed to drugs in treatment medium for an additional 72 h. Cell viability was assessed using the alamar blue viability assay (Invitrogen). Triplicate wells of each treatment were analyzed and each experiment was done three times. The IC50 values were determined by nonlinear regression of the dose-response data using Prism 5.0 for Mac OSX (GraphPad Software). […] Cell viability was determined after treatment for 72 h. The combination index (CI) was calculated to determine the presence of synergism (CI<1) or antagonism (CI>1) using CalcuSyn software (Biosoft).
(§3) Assessment of drug interaction by Bliss independence. […] Using this equation, if the experimentally measured inhibition is greater than Ei, then the combination is synergistic.38 Plots were generated by Prism GraphPad software.

[2] = system: SKBR3R cells
Experimental: as §1, §2, §3

[3] = system: BT474 cells; details: 72 h, read-out: IC50 Values, Trasutuzumab
Experimental: as §1, §2

[4] = system: SKBR3R cells; experiment: Cell number by Trypan blue staining; details: 80 nM trastuzumab, 72 h
Experimental: (FIG. 3A) SKBR3 (left) and SKBR3R (right) cells (1×10^4 per well) were left untreated or treated with 80 nM trastuzaumb for 72 h. Cell number (mean±s.e. of three determinations) was determined by Trypan blue staining. (FIG. 3B) Lysates from SKBR3 and SKBR3R cells were immunoblotted (IB) with the indicated antibodies. (FIG. 3C) Anti-MUC1-C precipitates from SKBR3 and SKBR3R cells were immunoblotted with the indicated antibodies. […] Cell number (mean±s.e. of three determinations) was determined by Trypan blue staining. (FIG. 3E) Lysates from BT474 and BT474R cells were immunoblotted with the indicated antibodies. (FIG. 3F) Anti-MUC1-C precipitates from BT474 and BT474R cells were immunoblotted with the indicated antibodies. IP, immunoprecipitated.
FIGS. 5A-G. Targeting MUC1-C in trastuzumab-resistant cells suppresses HER3 activation and inhibits growth and clonogenic survival. […] The colony number is expressed as the mean±s.e. of three replicates. […] Cell number (mean±s.e. of three determinations) was determined by Trypan blue staining. […] Cell number (mean±s.e. of three determinations) was determined by Trypan blue staining. […] The results are expressed as tumor volume (mean±s.e. for the eight mice in each group).
Cell culture. […] Viability was determined by trypan blue exclusion.

CS(=O)(=O)CCNCc1ccc(-c2ccc3ncnc(Nc4ccc(OCc5cccc(F)c5)c(Cl)c4)c3c2)o1 [Lapatinib]
Fold Change ([1]; BT474R cells, lapatinib IC50 alone vs with trastuzumab and GO-203): 6.8
Fold Change ([2]; SKBR3R cells, lapatinib IC50 alone vs with GO-203): 1.45
Fold Change ([2]; SKBR3R cells, lapatinib IC50 alone vs with trastuzumab and GO-203): 1.82

Trastuzumab: humanized monoclonal antibody that binds to the HER2 extracellular domain
IC50 [3]: 133 nM
cell growth (cell number) [4]: not inhibited
IC50 for trastuzumab, in words ([1]; BT474R cells (trastuzumab-resistant)): no definable IC50
IC50 for trastuzumab, in words ([2]; SKBR3R cells (trastuzumab-resistant)): no definable IC50
cell growth inhibition, in words ([2]; SKBR3R cells, 72 h, GO-203 alone, trastuzumab alone at 40 nM, or both): no effect
